Data on six compounds can be found in ChEMBL document CHEMBL1133858, “BMS-196085: a potent and selective full agonist of the human beta(3) adrenergic receptor” (Bioorg Med Chem Lett, 2001).

SMILES strings stand for the structures.

In one experiment the test system is ADRB2+ADRB3 (+). Briefly: Tested for binding selectivity to beta3 adrenoceptor versus beta2 adrenoceptor.
A further experiment concerns ADRB1+ADRB3 (+). Briefly: Tested for binding selectivity to beta3 adrenoceptor versus beta-1 adrenoceptor.

On to `COC(=O)c1ccc([C@@H](Cc2ccccc2)NC[C@H](O)c2ccc(O)c(NS(C)(=O)=O)c2)cc1`, for which the Selectivity ratio in the experiment on ADRB2+ADRB3 (+) was 5; in the experiment on ADRB1+ADRB3 (+), 42.

For `Cc1cc([C@@H](Cc2ccccc2)NC[C@H](O)c2ccc(O)c(NS(C)(=O)=O)c2)ccc1OC(F)F`, the Selectivity ratio with ADRB2+ADRB3 (+) came to 0.6; with ADRB1+ADRB3 (+), 6.

For `COc1ccc([C@@H](Cc2ccccc2)NC[C@H](O)c2ccc(O)c(NS(C)(=O)=O)c2)c(OC)n1`, the Selectivity ratio came out at 13 in the experiment with ADRB2+ADRB3 (+) and 61 in the experiment on ADRB1+ADRB3 (+).

As for `CS(=O)(=O)Nc1cc([C@@H](O)CNC(Cc2ccccc2)c2ccc(OCc3ccccc3)cc2)ccc1O` (some centres not stated), the values for the Selectivity ratio with ADRB2+ADRB3 (+) and in the experiment with ADRB1+ADRB3 (+) were 2 and 58, respectively.

For the compound `CS(=O)(=O)Nc1cc([C@@H](O)CN[C@H](Cc2ccccc2)c2ccc(C(N)=O)cc2)ccc1O`, the figures for the Selectivity ratio with ADRB2+ADRB3 (+) and with ADRB1+ADRB3 (+) were 8 and 90, respectively.

`CS(=O)(=O)Nc1cc(C(O)CNC(Cc2ccccc2)c2ccc(F)cc2)ccc1O` (configuration not stated): the results for the Selectivity ratio with ADRB2+ADRB3 (+) and in the experiment on ADRB1+ADRB3 (+) were 1 and 11, respectively.
